Reference: patent US20030055244A1, “Pyridyl-containing spirocyclic compounds as inhibitors of fibrinogen-dependent platelet aggregation” (priority 1999, published 2003)

Protein sequences, listed by entry. Tags and fused reporters are not part of them. Residues count along the entry.
UniProt P05106, 27-788: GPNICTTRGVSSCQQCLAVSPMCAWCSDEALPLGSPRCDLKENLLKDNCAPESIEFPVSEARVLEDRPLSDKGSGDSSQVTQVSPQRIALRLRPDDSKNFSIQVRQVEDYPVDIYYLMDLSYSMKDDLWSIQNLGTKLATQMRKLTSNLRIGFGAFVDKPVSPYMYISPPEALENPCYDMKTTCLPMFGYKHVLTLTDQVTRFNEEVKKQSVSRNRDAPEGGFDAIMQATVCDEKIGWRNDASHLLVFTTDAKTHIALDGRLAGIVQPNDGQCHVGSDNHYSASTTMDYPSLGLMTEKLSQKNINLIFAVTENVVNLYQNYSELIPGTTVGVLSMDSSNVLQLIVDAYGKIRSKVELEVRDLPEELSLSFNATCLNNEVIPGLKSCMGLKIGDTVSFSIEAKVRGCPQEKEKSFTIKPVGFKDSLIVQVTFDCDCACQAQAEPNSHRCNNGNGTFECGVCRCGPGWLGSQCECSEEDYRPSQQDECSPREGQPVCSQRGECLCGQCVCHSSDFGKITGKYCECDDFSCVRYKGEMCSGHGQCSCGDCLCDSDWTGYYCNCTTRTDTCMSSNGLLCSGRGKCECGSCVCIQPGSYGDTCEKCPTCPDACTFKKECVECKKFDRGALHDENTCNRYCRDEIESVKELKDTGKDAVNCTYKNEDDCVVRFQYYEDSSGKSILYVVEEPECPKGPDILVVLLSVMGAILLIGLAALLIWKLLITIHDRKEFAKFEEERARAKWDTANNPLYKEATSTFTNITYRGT
UniProt P08514, 32-887 limits assumed: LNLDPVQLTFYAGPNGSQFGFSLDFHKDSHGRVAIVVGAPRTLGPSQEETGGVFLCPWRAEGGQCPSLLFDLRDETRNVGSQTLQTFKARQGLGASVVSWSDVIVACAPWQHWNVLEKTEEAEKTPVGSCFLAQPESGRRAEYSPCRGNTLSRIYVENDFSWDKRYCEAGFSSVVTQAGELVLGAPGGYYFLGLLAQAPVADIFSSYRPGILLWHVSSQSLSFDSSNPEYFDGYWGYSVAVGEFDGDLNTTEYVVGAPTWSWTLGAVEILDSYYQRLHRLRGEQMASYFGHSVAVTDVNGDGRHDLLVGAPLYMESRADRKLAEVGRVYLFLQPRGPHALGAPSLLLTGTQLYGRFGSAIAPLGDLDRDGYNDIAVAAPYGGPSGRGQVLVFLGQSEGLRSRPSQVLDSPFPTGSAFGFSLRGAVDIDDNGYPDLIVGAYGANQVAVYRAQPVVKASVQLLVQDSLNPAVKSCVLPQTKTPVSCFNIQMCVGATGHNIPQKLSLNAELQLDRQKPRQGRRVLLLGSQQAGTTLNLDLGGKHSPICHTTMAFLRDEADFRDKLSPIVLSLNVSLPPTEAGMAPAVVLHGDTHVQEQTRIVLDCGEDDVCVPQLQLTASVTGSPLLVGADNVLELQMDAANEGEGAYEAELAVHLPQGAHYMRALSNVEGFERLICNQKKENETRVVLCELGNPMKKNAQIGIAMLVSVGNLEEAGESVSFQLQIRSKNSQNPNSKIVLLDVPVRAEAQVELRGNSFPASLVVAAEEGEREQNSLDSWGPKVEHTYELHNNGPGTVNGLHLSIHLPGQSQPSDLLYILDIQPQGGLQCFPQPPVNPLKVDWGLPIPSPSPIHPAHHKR
UniProt P08514, 891-1039 limits assumed: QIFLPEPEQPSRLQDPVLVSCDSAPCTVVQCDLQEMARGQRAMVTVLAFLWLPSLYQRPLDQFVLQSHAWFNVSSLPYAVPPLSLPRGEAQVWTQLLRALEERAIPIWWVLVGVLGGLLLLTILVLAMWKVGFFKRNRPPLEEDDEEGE

Target: T1, GPIIb-IIIa (Homo sapiens, UniProt P05106+P08514)
T1 construct: Purified platelet GPIIb-IIIa receptor was prepared as described by Fitzgerald; from tissue; host or cells: platelets
Experiment: ELISA IIb-IIIa assay (fibrinogen binding to immobilized purified GPIIb-IIIa)
Settings: inhibition of fibrinogen binding to purified GPIIb-IIIa
Procedure: No. 1 - The ELISA IIb-IIIa Assay
PIIb-IIIa is coated onto microtiter plates. The coated support is then contacted with fibrinogen and with the test material (e.g., compounds of Formula I) and incubated for a sufficient time to permit maximal binding of fibrinogen to the immobilized GPIIb- Ila. Fibrinogen is typically provided at a concentration of about 5-50 nM and the test material can, if desired, be added at a series of dilution. Typical incubations are 2 to 4 hours at 25° C., the time and temperature being interdependent.
After incubation, the solution containing the fibrinogen and test material is removed and the level of binding of fibrinogen measured by quantitating bound fibrinogen to GPIIb-IIIa. Any suitable means of detection may be used, but it is convenient to employ labeled fibrinogen, for example using biotinylated labels. Such methods are well known in the art.
A. Description of Assays—Plate Assays
After purification, the receptors were stored in 0.1% Triton X-100 at 0.1-1.0 mg/ml. […]
The corresponding ligands (fibrinogen, von Willebrand Factor, or vitronectin) were conjugated to biotin using commercially available reagents and standard protocols. […] After incubation, the wells are aspirated to dryness and bound ligand is quantitated. […]

Work on `Cc1ccc(S(=O)(=O)N[C@@H](CCC(=O)N2CCC3(CC2)CCN(c2ccncc2)CC3)C(=O)O)cc1` [Example 7, 2(S)-2-{[(4-methylphenyl)sulfonyl]amino}-5-oxo-5-[9-(4-pyridyl)-3,9-diazaspiro [5.5]undec-3-yl]pentanoic acid] yielded an IC50 of 2 nM.
